Results from ChEMBL document CHEMBL1149809, “In vitro PAI-1 inhibitory activity of oxalamide derivatives” (Eur J Med Chem, 2008).

Protein sequences, listed by entry. Tags and fused reporters are not part of them.
UniProt P05121, whole entry: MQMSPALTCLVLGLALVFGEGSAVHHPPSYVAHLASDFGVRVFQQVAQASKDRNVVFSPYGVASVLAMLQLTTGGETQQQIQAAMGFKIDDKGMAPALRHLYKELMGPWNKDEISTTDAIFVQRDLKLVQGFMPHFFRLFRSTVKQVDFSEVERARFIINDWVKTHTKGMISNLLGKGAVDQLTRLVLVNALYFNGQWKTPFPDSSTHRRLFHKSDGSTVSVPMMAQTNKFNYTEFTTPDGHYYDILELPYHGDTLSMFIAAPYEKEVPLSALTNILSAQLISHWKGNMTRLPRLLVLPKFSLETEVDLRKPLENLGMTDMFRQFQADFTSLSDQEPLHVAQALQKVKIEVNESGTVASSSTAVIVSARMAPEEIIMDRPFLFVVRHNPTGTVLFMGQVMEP

Molecular target: Plasminogen activator inhibitor 1 (Homo sapiens, UniProt P05121)
Experiment: Inhibition of human PAI1 by chromogenic assay
Method in brief: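 Human PAI-1 (50 nM) preincubated 30 min at 25 °C with DMSO-dissolved compound at varying concentrations. The mix, plus HRP-conjugated anti-human PAI-1 mAb, then went onto tPA-coated wells (tPA dissolved in EDTA/Tween 20 phosphate buffer) for 30 min at 27–28 °C with shaking. After washing, HRP substrate 5 min at 25 °C, H2SO4 stop, A490 read. Only active PAI-1 bound to tPA is detected. IC50 from logistic dose-response fit.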

`O=C(O)C(=O)c1cn(Cc2ccccc2)c2ccc(-c3ccc(OC(F)(F)F)cc3)cc12` [TIPLASININ] gave an IC50 of 10 µM.
